Apparent affinities of Ab-14 variants for a coronavirus HR2 peptide

Reference: Engelhart et al. 2022, doi:10.1038/s41597-022-01779-4. File: FLAb, binding data.

Binding partner: SARS-CoV-2 spike HR2 peptide, sequence PDVDLGDISGINAS.

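The starting antibody came from a phage panning campaign against this peptide. Library AAYL49 holds single substitutions and randomly drawn double and triple substitutions in the CDRs. The assay is AlphaSeq: two haploid yeast populations carry antibody and antigen on their surface. After mating in shaken culture at 30 °C for 16 h, diploids were selected and their barcode pairs sequenced. A regression on co-assayed BCL2-family reference pairs converts the normalised counts of each replicate to an apparent Kd. Mating was done three times.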

Each scFv is VH, a (GGGGS)3 linker, VL, as in the parent Ab-14, and differs from it in the CDRs of the heavy chain only.
VH: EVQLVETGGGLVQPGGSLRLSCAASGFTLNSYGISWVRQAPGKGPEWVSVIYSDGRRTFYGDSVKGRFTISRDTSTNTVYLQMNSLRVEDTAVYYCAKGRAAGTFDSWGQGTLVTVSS
VL: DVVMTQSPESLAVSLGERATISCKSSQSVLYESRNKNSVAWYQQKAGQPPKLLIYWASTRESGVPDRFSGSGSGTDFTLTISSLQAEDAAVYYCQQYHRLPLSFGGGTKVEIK

Positions count from residue 1 of the parent VH; G33H puts H in place of G.
Kd is apparent (estimated from mating counts) and averaged on the log scale over replicates with a signal. Smaller is tighter.
"nd" means that the variant was in the library but no mating with the target was seen in any replicate; the authors take this as a sign of poor binding, and no number exists.

With G33H/V50G/R100L the result was 6.1 µM (2 of 3 replicates).
With S31H/G55I/A102Q the result was 24 µM (1 of 3 replicates).
With I34Q/S53R/V64N the result was nd (0 of 3 replicates).
With F27T/G55Y the result was 1.4 µM (1 of 3 replicates).
With S31I/K65T/G99S the result was 21 µM (1 of 3 replicates).
With Y52Q/S63T/S107P the result was 4.9 µM (1 of 3 replicates).
With Y32N/S53W/S107H the result was 4.5 µM (2 of 3 replicates).
With K65L/G99V/T104Q the result was 250 µM (2 of 3 replicates).
With G33K/I34G/S35C the result was 2.5 µM (2 of 3 replicates).
With L29K/Y60N/A102F the result was 3.7 µM (2 of 3 replicates).
With V64D/G99E the result was 14 µM (2 of 3 replicates).
With T58Y/R100A the result was 1.9 µM (3 of 3 replicates).
With N30Q/V64F the result was 12 nM (3 of 3 replicates).
With F59L/R100Y/D106L the result was 18 µM (1 of 3 replicates).
With G99I/A101S/G103A the result was nd (0 of 3 replicates).
With G33F/I34A/R56P the result was 9.5 µM (2 of 3 replicates).
With G33W/S35E/S53T the result was 160 µM (1 of 3 replicates).
With G55S/K65Y/S107G the result was 11 µM (1 of 3 replicates).
With N30G/T58M the result was 48 nM (3 of 3 replicates).
With Y52H/K65C/A101D the result was nd (0 of 3 replicates).
With S31E/G61T/A101F the result was 770 pM (3 of 3 replicates).
With L29E/Y32R/Y60M the result was 390 nM (1 of 3 replicates).
With L29R/S53P the result was nd (0 of 3 replicates).
With T28L/I34G/S107N the result was nd (0 of 3 replicates).
With S35F/A101S the result was 54 µM (3 of 3 replicates).
With F27S/G33F/F105C the result was nd (0 of 3 replicates).
With V50W/G99P/A102M the result was nd (0 of 3 replicates).
With S35I/F59L/F105D the result was nd (0 of 3 replicates).
With S35M/Y52W/D62Y the result was nd (0 of 3 replicates).
With G33C/I51T/A101I the result was 19 µM (1 of 3 replicates).
With N30Y/S53H/G99C the result was 4.2 µM (3 of 3 replicates).
With A101R/A102P the result was 360 nM (3 of 3 replicates).
With G61C/D62S/S107L the result was 1.3 µM (1 of 3 replicates).
With V50K/I51M/Y52M the result was 47 µM (1 of 3 replicates).
With T28D/R56H/R57F the result was 1.1 µM (1 of 3 replicates).

Excerpt, the first 4 entries:

With G33H/V50G/R100L the result was 6.1 µM (2 of 3 replicates).
With S31H/G55I/A102Q the result was 24 µM (1 of 3 replicates).
With I34Q/S53R/V64N the result was nd (0 of 3 replicates).
With F27T/G55Y the result was 1.4 µM (1 of 3 replicates).

Empty control strains, which show no peptide, gave a signal in 15% of pairings with library AAYL49; the median was 11 µM and 95% of these signals were weaker than 680 nM. No background was subtracted.
Parent in this assay: reference entry 4.4 nM, copy in this library 13 µM (one replicate of three).